Source: patent US8178691B2

Test: solubility of 1,2,4-triazol-3-one in water and in formic acid (FIG. 1)
Details: solvents water and formic acid, as a function of temperature (FIG. 1)

## O=C1N=CN=N1
  solubility in formic acid compared with water: much more soluble in formic acid than it is in water
